Data reported in PubChem BioAssay AID2553 (Johns Hopkins Ion Channel Center, 2010).
The list shows a part of the results, in another mix than the full data. Some salts or complexes appear as unconnected parts, following the source record. Active and inactive are the calls of the source.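 Rule for the calls: active = B-score under library mean minus 3 SD, initial fluorescence not abnormally high, positive integrated signal ratio; inactive = the rest.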

Amino acid sequences for entries named in this document (tags omitted).
UniProt Q61143, whole entry: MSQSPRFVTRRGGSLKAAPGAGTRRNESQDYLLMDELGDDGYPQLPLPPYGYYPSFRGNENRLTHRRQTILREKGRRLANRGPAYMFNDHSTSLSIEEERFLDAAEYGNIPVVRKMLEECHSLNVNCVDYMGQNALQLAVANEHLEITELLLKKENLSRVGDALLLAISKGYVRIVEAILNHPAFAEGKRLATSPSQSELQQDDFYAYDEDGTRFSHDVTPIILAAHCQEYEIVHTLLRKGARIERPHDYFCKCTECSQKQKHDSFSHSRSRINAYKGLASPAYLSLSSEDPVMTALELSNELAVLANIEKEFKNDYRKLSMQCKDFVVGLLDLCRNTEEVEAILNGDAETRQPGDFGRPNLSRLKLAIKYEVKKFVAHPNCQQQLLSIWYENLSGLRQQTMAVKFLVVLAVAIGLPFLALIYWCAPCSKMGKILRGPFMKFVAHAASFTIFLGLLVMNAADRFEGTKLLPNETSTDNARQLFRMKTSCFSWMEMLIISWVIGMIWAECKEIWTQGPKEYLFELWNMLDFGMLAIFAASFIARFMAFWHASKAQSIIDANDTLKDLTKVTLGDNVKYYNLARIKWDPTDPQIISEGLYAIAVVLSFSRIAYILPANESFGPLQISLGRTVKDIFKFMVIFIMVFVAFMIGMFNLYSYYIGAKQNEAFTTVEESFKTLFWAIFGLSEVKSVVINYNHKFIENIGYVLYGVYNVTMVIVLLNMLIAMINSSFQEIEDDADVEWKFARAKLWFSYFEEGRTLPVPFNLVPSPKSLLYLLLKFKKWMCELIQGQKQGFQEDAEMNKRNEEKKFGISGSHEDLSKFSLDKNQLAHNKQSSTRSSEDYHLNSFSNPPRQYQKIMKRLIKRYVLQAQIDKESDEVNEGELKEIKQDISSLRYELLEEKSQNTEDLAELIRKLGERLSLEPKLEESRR

biological target: Short transient receptor potential channel 6 (Mus musculus) (UniProt Q61143); experiment: mouse TRPC6 channel inhibitors, primary screen, cell-based, HEK293, membrane potential dye (AID 2553); details: ACh-evoked depolarization, at 10 µM; active compounds read low;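 for B-score: B-score derived from integrated fluorescence ratio over the kinetic read; more negative B-score means stronger inhibition of depolarization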

SMILES	outcome	B-score
CN(C)C1(CNC(=O)c2ccc(Cl)c(S(N)(=O)=O)c2)CCCCC1	inactive	
CN(C)CCOC(=O)C(O)(c1ccccc1)C1CCCCC1 (stereo not drawn)		active: -9.87
O=P(Nc1nc2ccccc2s1)(c1ccccc1)c1ccccc1	inactive	
C[C@H]1OP(=O)(Oc2ccccc2)[C@H](O)[C@H](O)[C@H]1N=[N+]=[N-] (stereo partly drawn)	inactive	
COc1ccc(NP(C)(=O)Oc2ccccc2OC)cc1 (stereo not drawn)	inactive	
O=[N+]([O-])c1ncn(CCn2cnc([N+](=O)[O-])n2)n1	inactive	
O=[N+]([O-])c1ccc(OP2(=O)COCCO2)cc1 (stereo not drawn)	inactive	
CC(=O)NC(SC(=S)N(C)C)C(Cl)(Cl)Cl (stereo not drawn)	inactive	
O=[As](O)(c1ccccc1)c1ccc(O)cc1	inactive	
O=[N+]([O-])c1cc([N+](=O)[O-])c(NCC2CCS(=O)(=O)C2)c([N+](=O)[O-])c1 (stereo not drawn)	inactive	
Cc1cc(-c2cccc3ccccc23)c(C)cn1.O=[N+]([O-])c1cc([N+](=O)[O-])c(O)c([N+](=O)[O-])c1	inactive	
C(Cc1nn[nH]n1)Cc1nn[nH]n1	inactive	
Nc1ccc([As](=O)(O)c2ccc([N+](=O)[O-])cc2)cc1	inactive	
O=C(OC1CN2CCC1CC2)c1cccc(Cl)c1 (stereo not drawn)	inactive	
CP(=O)(Nc1ccc(SC(F)(F)F)cc1)Oc1ccc(F)cc1 (stereo not drawn)	inactive	
CC(C)C(=O)NC(Sc1ccccc1)C(Cl)(Cl)Cl (stereo not drawn)	inactive	
O=P(Nc1nccs1)(c1ccccc1)c1ccccc1	inactive	
CCOP(C)(=S)SCC(=O)NC(C)(CC)C(=O)O (stereo not drawn)	inactive	
c1nnnn1CCn1cnnn1	inactive	
CP(=O)(Nc1ccc2c(c1)OCCO2)Oc1ccccc1 (stereo not drawn)	inactive	
O=P1(Nc2nc3ccc(Cl)cc3s2)COc2ccccc2O1 (stereo not drawn)	inactive	
CCOc1ccc(C2=NCC(CBr)S2)cc1 (stereo not drawn)	inactive	
CP(=O)(Nc1ccccc1F)Oc1ccccc1 (stereo not drawn)	inactive	
CC(C)(C)C(=O)NC(Sc1ccccc1)C(Cl)(Cl)Cl (stereo not drawn)	inactive	
CC(C)c1ccc(OP(C)(=O)Nc2ccc(SC(F)(F)F)cc2)cc1 (stereo not drawn)	inactive	

SMILES	outcome	B-score
CC(=O)c1ccc(N2CC2c2ccncc2)cc1 (stereo not drawn)	inactive	
O=C(OC1CN2CCC1CC2)c1ccc([N+](=O)[O-])cc1 (stereo not drawn)	inactive	
O=C(OCCN1CCN(CCOCc2ccccc2)CC1)C(O)(c1ccccc1)c1ccccc1	inactive	
C[C@H]1OP(=O)(Oc2ccccc2)C[C@@H]2O[C@@H]21 (stereo partly drawn)	inactive	
C[C@@H]1C=CCP(=O)(Oc2ccccc2)O1 (stereo partly drawn)	inactive	
CC(=O)Nc1ccc([As](=O)(O)O)c(O)c1	inactive	
COc1ccc2c(c1O)-c1c(O)c(OC)cc3c1[C@H](C2)[N+](C)(C)CC3.O=[N+]([O-])c1cc([N+](=O)[O-])c([O-])c([N+](=O)[O-])c1[O-]	inactive	
CC(=O)Nc1ccc(Oc2c([N+](=O)[O-])cc([N+](=O)[O-])cc2[N+](=O)[O-])cc1	inactive	
CCNC(=S)/N=C(\N)N[N+](=O)[O-]	inactive	
O=C(NC1CCS(=O)(=O)C1)NP(=S)(Oc1ccccc1)Oc1ccccc1 (stereo not drawn)	inactive	
c1ccc(-c2nn[nH]n2)c(-c2nn[nH]n2)c1	inactive	
CCOC(=O)NC(Sc1ccccc1)C(Cl)(Cl)Cl (stereo not drawn)	inactive	
Cc1ccc(NP(=O)(Oc2cccc(C)c2)Oc2cccc(C)c2)nc1	inactive	
CCOC(=O)c1ccc(NP(C)(=O)Oc2ccc(F)cc2)cc1 (stereo not drawn)	inactive	
COc1ccc(OP(C)(=O)Nc2ccc(SC(F)(F)F)cc2)cc1 (stereo not drawn)	inactive	
COC(=O)c1cc2c(s1)N=C(c1ccccc1)N(C)P2(=O)N1CCOCC1 (stereo not drawn)	inactive	
Cc1ccc(OP(=O)(Nc2ccccn2)Oc2ccc(C)cc2)cc1	inactive	
CC(=O)NC(SC(=S)N(CC(C)C)CC(C)C)C(Cl)(Cl)Cl (stereo not drawn)	inactive	
O=C(OC1CN2CCC1CC2)c1ccccc1 (stereo not drawn)	inactive	
CCN(CC)CCCOC(=O)C(O)(c1ccccc1)C1CCCCC1 (stereo not drawn)		active: -8.5
CCC(=O)N1C2C3N(C(=O)CC)C1C1N(C(=O)CC)C(C(N1C(=O)CC)N3C(=O)CC)N2C(=O)CC	inactive	
CP(=O)(Nc1ccccc1)Oc1ccc(F)cc1 (stereo not drawn)	inactive	
Cc1ccccc1OP(=O)(Nc1ccccn1)Oc1ccccc1C	inactive	
O=[N+]([O-])c1cc([N+](=O)[O-])c(OC2CCCCC2O)c([N+](=O)[O-])c1 (stereo not drawn)	inactive	
CCCCCOc1ccc(NP(C)(=O)Oc2ccc(Cl)cc2Cl)cc1 (stereo not drawn)	inactive	

SMILES	outcome	B-score
CN(C)C(=O)Oc1noc2ccccc12	inactive	
CC(=O)Nc1ccc([As](=O)(O)O)cc1	inactive	
O=C(O)c1ccccc1[As](=O)(O)O	inactive	
O=P(Nc1nc2ccc(Cl)cc2s1)(c1ccccc1)c1ccccc1	inactive	
Cc1cc(C)cc(OP(C)(=O)Nc2cccc(C(F)(F)F)c2)c1 (stereo not drawn)	inactive	
Cc1cc(SC(NC(=O)c2ccc(F)cc2)C(Cl)(Cl)Cl)ncn1 (stereo not drawn)	inactive	
CCOP(=O)(Nc1ccccc1)OCC	inactive	
COc1ccccc1OP(C)(=O)Nc1ccc(C)c(C)c1 (stereo not drawn)	inactive	
Cc1ccc(NP(=O)(Oc2ccccc2F)Oc2ccccc2F)nc1	inactive	
CN(C(=O)Cc1ccc(Cl)c(Cl)c1)[C@H]1CCCC[C@@H]1N1CCCC1	inactive	
COc1ccc(OP(C)(=O)Nc2ccccc2Br)cc1 (stereo not drawn)	inactive	
Cc1nc2ccc3ccccc3c2o1.O=[N+]([O-])c1cc([N+](=O)[O-])c(O)c([N+](=O)[O-])c1	inactive	
O=[N+]([O-])c1cc([N+](=O)[O-])c(CCN2CCOCC2)c([N+](=O)[O-])c1	inactive	
CCN(N=Nc1nonc1N)c1nonc1N	inactive	
Nc1cccc2ccc([As](=O)(O)O)cc12	inactive	
CP(=O)(Nc1ccc(Cl)cc1Cl)Oc1ccccc1 (stereo not drawn)	inactive	
CP(=O)(OCCOc1ccccc1)OCCOc1ccccc1	inactive	
NC(=O)c1cc([N+](=O)[O-])cc([N+](=O)[O-])c1N	inactive	
COc1ccccc1OP(C)(=O)Nc1ccc(Br)cc1 (stereo not drawn)	inactive	
Cc1ccc(N/C(=N/P(=O)(N2CCOCC2)N2CCOCC2)N2CCOCC2)cc1	inactive	
COc1ccccc1OP(=O)(Nc1ccc(C)cn1)Oc1ccccc1OC	inactive	
COc1ccc(OP(C)(=O)Nc2ccccn2)cc1 (stereo not drawn)	inactive	
Cc1ccc(OP(=O)(Nc2nccs2)Oc2ccc(C)cc2)cc1	inactive	
